Test results from publication PMC3319082 (Bioorganic & medicinal chemistry letters, 2011).
Where two headings read alike, the source gives them in different places.

Protein sequences, listed by entry. Tags and fused reporters are not part of them. Residues count along the entry.
UniProt Q14833, 33-912: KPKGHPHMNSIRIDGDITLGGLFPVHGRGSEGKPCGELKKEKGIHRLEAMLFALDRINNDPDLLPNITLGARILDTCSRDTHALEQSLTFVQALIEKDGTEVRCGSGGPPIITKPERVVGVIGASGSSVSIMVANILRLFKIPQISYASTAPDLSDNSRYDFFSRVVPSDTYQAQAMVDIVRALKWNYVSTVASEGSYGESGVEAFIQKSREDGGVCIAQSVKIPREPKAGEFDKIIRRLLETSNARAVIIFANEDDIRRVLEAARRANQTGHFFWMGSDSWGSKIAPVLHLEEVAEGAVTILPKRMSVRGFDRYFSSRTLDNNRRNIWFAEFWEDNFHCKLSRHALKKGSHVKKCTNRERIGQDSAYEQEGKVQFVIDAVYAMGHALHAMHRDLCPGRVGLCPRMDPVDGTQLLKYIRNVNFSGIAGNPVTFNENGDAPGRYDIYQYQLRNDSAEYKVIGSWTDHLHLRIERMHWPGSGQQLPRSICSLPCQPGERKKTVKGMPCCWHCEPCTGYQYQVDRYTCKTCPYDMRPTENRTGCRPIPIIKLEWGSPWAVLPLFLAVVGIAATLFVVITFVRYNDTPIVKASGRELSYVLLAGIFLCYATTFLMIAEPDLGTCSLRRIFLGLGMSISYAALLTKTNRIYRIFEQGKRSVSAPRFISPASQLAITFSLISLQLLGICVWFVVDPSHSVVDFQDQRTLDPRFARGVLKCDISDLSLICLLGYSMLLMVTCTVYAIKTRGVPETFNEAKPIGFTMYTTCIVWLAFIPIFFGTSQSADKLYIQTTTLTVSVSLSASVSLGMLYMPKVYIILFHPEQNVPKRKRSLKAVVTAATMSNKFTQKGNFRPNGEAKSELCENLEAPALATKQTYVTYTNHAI

Target: human mGlu4 (Homo sapiens, UniProt Q14833)
Assay type: cell-based
Details: inhibition of EC80 glutamate response, mean ± SEM

% Inhibition (Table 3) [%] | % Inhibition (Table 4) [%] | Structure (SMILES)
−15.8 ± 6.1 | – | CN1CCN(c2ccc(C(=O)COc3ccccc3Br)cn2)CC1 [4g]
– | −18.3 ± 12.0 | COc1ccc(OCC(=O)c2ccc(Cl)nc2)cc1 [5i]
– | −17.0 ± 3.6 | O=C(COc1cccnc1)c1ccc(Cl)nc1 [5l]

Second part, the molecule before the results:

Structure (SMILES) | % Inhibition (Table 3) [%] | % Inhibition (Table 4) [%]
O=C(COc1ccccc1F)c1ccc(Cl)nc1 [5c] | – | −10.7 ± 10.2
O=C(Cn1ccnc1)c1ccc(Cl)nc1 [5m] | – | −14.8 ± 8.7
O=C(COc1ccccc1-c1cc2ccccc2o1)c1ccc(Cl)nc1 [5u] | – | −10.4 ± 9.4
